Earlier results as cited in patent US12036548B2, “Organs-on-chips as a platform for epigenetics discovery” (EMULATE, INC., priority 2018, dated 2024).

Conditions: inhalation; Costa et al., 1982

Question: With radioiodine as the substance, how does the “fraction breathed in that is absorbed into the blood in the lungs” value read?
Answer: about 55%
